Data: patent US10513559B2, “Amatoxin-armed therapeutic cell surface binding components designed for tumour therapy” (Deutsches Krebsforschungszentrum, priority 2009, dated 2019)

What was measured:
Assay type in all cases: cell-based
Details in all cases: 72 h and 120 h
[1] = system: SKOV-3 (Her2/neu positive); experiment: in vitro BrdU incorporation, SKOV-3
Procedure: (§1) Inhibition of cell growth by amanitin-Herceptin conjugates was determined by in vitro BrdU incorporation as described in Current Protocols in Immunology 1 (see chapter 7.10. Coligan, J. E. et al., eds.) John-Wiley & Sons, New York). […] (See FIGS. 11A to 11D). The indicated molar concentration is indicated on the basis of the entire amanitin comprised in the respective conjugate.

[2] = system: SK-BR-3 (Her2/neu positive); experiment: in vitro BrdU incorporation, SK-BR-3
Procedure: as §1

[3] = system: NCI-N87 (Her2/neu positive); experiment: in vitro BrdU incorporation, NCI-N87
Procedure: as §1

[4] = system: MDA-MB231 (Her2/neu negative); experiment: in vitro BrdU incorporation, MDA-MB231
Procedure: as §1

Measured: cytotoxicity (in words)

Herceptin: recombinant humanized IgG1 kappa monoclonal antibody binding the extracellular domain of HER2
no cytotoxicity: all assays above
